The values that follow come from ChEMBL document CHEMBL3875167, “Design and synthesis of chiral 2H-chromene-N-imidazolo-amino acid conjugates as aldose reductase inhibitors” (Eur J Med Chem, 2016).

For this test, the target named is Aldo-keto reductase family 1 member B1 (Rattus norvegicus, UniProt P07943). Briefly: Inhibition of rat lenses ALR2 using DL-glyceraldehyde as substrate preincubated for 10 mins followed by substrate addition measured for 4 mins. An outline of the steps: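 ALR2 assay run at 30 °C in 1 mL containing 0.10 mM NADPH, 0.1 M sodium phosphate pH 6.2 and enzyme extract. The mixture was preincubated 10 min, then 10 mM DL-glyceraldehyde was added and NADPH oxidation followed for 4 min. Compounds were in DMSO diluted with water. Substrate-free blank rates were subtracted. Three replicates per concentration, with ≥3 concentrations giving 20–80% inhibition.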

Take `O=C1NC(=O)[C@@]2(CCOc3ccc(F)cc32)N1` [SORBINIL]: the IC50 was 430 nM.
